# Assay results reported in ChEMBL document CHEMBL1255531, “Utilization of a nitrogen-sulfur nonbonding interaction in the design of new 2-aminothiazol-5-yl-pyrimidines as p38α MAP kinase inhibitors” (Bioorg Med Chem Lett, 2010).
# Chains of the proteins cited; added tags and fusions are not shown.
# UniProt Q16539, whole entry: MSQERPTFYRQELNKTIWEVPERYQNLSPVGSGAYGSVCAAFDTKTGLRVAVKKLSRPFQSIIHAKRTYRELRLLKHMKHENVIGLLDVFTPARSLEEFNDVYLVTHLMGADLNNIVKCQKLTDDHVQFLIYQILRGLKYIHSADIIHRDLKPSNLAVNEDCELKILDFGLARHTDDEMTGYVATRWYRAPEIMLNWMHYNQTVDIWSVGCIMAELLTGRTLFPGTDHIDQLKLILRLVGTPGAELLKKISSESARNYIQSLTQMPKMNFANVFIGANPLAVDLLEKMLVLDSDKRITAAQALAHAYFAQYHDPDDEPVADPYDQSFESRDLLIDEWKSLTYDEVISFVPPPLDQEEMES
# Molecular target: Mitogen-activated protein kinase 14 (Homo sapiens, UniProt Q16539)
# Assay: Inhibition of bacterially expressed activated p38alpha pre-incubated 10 mins measured after 45 mins by scintillation counting
structure (smiles),measurement,value
CCNC(=O)NCc1ccccc1-c1cc(-c2cnc(NC(C)C)s2)nc(NCCN(C)C)n1,IC50,7 nM
